Data reported in patent publication US9359338B2, “Cyclopropanecarboxamido-substitute aromatic compounds as anti-tumor agents” (Crown Bioscience Inc. (Taiwan), priority 2012, dated 2016).

Protein sequences, listed by entry. Tags and fused reporters are not part of them. Residues count along the entry.
UniProt P35968, 790-1356: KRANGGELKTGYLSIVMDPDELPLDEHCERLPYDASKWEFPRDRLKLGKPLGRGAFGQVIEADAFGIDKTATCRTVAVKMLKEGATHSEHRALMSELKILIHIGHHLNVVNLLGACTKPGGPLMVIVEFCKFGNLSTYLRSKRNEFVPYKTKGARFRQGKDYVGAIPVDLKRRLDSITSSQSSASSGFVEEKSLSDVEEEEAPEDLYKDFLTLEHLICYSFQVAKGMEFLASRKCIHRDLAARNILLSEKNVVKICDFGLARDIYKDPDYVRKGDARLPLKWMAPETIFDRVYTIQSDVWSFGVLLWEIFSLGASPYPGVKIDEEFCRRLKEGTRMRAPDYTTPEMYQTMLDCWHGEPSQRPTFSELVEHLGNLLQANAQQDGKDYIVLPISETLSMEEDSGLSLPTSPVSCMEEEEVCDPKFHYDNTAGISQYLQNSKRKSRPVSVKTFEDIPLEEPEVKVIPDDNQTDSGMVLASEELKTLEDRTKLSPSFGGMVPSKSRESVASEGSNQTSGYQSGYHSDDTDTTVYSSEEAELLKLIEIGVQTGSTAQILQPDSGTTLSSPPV

Assays:
KDR kinase (790-1356 AA) = KDR kinase (790-1356 AA) (Homo sapiens (Human), UniProt P35968); assay: Inhibitory activity at KDR kinase (Lance Ultra Ulight-TK assay); format: biochemical
Protocol: Inhibitory Activity of Compounds at KDR Kinase
• [Experimental method]: Use Lance@Ultra Ulight™-TK assay kit from PerKinElmer to evaluate the inhibitory activity of compounds at KDR kinase. • [Instrument]: PerKinElmer's ENVISION plate reader • [Materials]: Optiplate-384 well plate (PerKinElmer), kinase buffer (50 mM Hepes pH7.5, 0.25 mM EGTA, 2 mM DTT, 0.01% Tween 20, 10 mM Mg^2+, 0.5 mM Mn^2+), KDR kinase (790-1356 AA, Crown Bioscience), KDR kinase substrate (PerKinElmer catalogue # TRF0127-M), Lance@Eu-W1024-anti-phosphotyrosine (PT66) (PerKinElmer, catalogue #AD0068), ATP (Invitrogen), DMSO (Sigma, catalogue #34869), purified water (Millipore, type: Milli-Q). • [Study conditions]: Mix KDR (final concentration: 20 nM) and compound (final DMSO: 0.5%), pre-incubate for 20 min at 30° C.; then add ATP (final concentration: 90 μM) and the substrate (final concentration […]). React for 2 hrs at 30° C. After the reaction, add antibody and reaction for 60 min at 30° C. Read the plate (615 nm, 665 nm), calculate the ratio of the value at 665 nm vs 615 nm and analyze the data. • [Samples]: Compounds in the examples and Sorafenib (positive control) • [Data Analysis]: Use CBIS data analysis software to calculate IC50 values

pERK in MDA-MB-231 cells = assay: Inhibitory activity at pERK (In Cell Western, MDA-MB-231 cells); format: cell-based; conditions: Homo sapiens, MDA-MB-231, MDA-MB-231 cells
Text: Inhibitory Activity of Compounds at pERK
• [Experimental method]: Use Acumen (TPP) to measure In Cell Western Blot results • [Instrument]: Acumen (TPP), Centrifuge (Thermo Scientific, Sorvall ST16R) • [Material]: MDA-MB-231 cells (ATCC), 96 well plate (BD, #356640), DMEM medium (Gibco, #11965-092), PBS (Invitrogen, #10010023), fetal bovine serum (Gibco, #16000044), BSA (Sigma, #A7030), DMSO (Sigma, #D2650); formaldehyde (Sinopharm), methanol (Sinopharm), 1^St antibody (anti-pERK antibody, Cell Signaling, #CST 4307s), 2nd antibody (FITC Donkey anti-rabbit IgG, Biolegend, #406403), Propidium Iodide (Invitrogen, #P3566), purified water (Millipore, type: Milli-Q). • [Protocol]: Grow MDA-MB-231 cells in DMEM medium (contains 10% FBS). When the cells reach 80% confluency, collect cells by trypsinization and centrifugation at 800 rpm for 3 minutes. Resuspend cells with appropriate volume of medium and count cell numbers. Adjust cell concentration to 70000 cells/mL, and split 100 μL cell suspension per well into 96-well plates. Transfer the plates into cell culture incubator (37° C., 5% CO2) and incubate cells overnight. […] Use Acumen (TPP) to measure the fluorescence. • [Samples]: Compounds in the examples and sorafenib (positive control) • [Data Analysis]: Use CBIS data analysis software to calculate IC50 values

Compound: Cc1cc(Oc2cc(NC(=O)C3CC3)ncn2)ccc1NC(=O)Nc1cc(C2CCN(C)CC2)cc(C(F)(F)F)c1 [Exe. 073]
- IC50 (KDR kinase (790-1356 AA)): 14 nM
- IC50 (pERK in MDA-MB-231 cells): 14 nM
